The text below walks through data of patent US8841257B2, “Inhibitors of STAT3 and uses thereof” (Board of Regents, The University of Texas System, priority 2009, dated 2014).

Protein sequences, listed by entry. Tags and fused reporters are not part of them.
UniProt P40763, whole entry: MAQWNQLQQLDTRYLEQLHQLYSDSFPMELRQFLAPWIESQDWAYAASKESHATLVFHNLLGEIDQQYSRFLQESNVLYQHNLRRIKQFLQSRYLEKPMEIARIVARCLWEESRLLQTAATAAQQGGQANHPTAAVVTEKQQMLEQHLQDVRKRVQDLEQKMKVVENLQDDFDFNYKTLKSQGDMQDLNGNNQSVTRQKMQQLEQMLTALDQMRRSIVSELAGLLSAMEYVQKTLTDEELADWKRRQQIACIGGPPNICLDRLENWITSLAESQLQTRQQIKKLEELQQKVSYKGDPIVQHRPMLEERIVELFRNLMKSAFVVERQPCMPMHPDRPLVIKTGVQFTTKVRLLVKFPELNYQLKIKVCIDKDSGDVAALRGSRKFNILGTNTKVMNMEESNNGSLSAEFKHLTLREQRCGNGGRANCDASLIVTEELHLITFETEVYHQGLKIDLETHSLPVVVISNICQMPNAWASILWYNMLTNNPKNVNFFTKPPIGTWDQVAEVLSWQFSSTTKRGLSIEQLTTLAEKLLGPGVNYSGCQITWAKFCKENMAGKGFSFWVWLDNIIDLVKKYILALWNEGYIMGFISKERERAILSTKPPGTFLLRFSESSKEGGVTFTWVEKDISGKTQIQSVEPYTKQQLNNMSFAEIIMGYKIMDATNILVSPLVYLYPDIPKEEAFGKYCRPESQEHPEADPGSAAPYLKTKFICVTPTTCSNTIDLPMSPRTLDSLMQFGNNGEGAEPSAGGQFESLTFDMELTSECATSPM

SMILES strings stand for the structures.

The target of the assay is full length STAT3 (Homo sapiens, UniProt P40763). Kind of assay: Fluorescence polarization competition assay for binding to STAT3. The note with it: read-out: IC50 (nM), affinity of peptidomimetics for STAT3; competition with FAM-Ala-pTyr-Leu-Pro-Gln-Thr-Val-NH2; mean of three ± standard deviation. (In general: Fluorescence polarisation rises when a labelled molecule tumbles more slowly, as on binding a larger partner.)
For orientation: IC50 means the concentration that gives 50% inhibition. As to `C/C(=C\C(=O)N[C@H]1CCc2cccc3c2N(C1=O)[C@H](C(=O)NCCOC(N)=O)C3)c1ccc(OP(=O)(O)O)cc1`, the IC50 was 201 nM.

`CCCC[C@H](NC(=O)/C=C(\C)c1ccc(OP(=O)(O)O)cc1)C(=O)N1C[C@H]2C[C@H]2[C@H]1C(=O)NCCOC(N)=O`: the IC50 turned out to be 122 nM.

`C/C(=C\C(=O)N[C@@H](CC(C)C)C(=O)N1C[C@H]2C[C@H]2[C@H]1C(=O)N[C@H](C)CCC(N)=O)c1ccc(OP(=O)(O)O)cc1`: the IC50 amounted to 88 nM.

For `C/C(=C\C(=O)N[C@H]1CCc2cccc3c2N(C1=O)[C@H](C(=O)N[C@H](C)CCC(N)=O)C3)c1ccc(OP(=O)(O)O)cc1`, the 50% inhibitory concentration (IC50) was found to be 112 nM.

With `CCCC[C@H](NC(=O)/C=C(\C)c1ccc(OP(=O)(O)O)cc1)C(=O)N1C[C@H]2C[C@H]2[C@H]1C(=O)N[C@H](C)CCC(N)=O`, the IC50 amounted to 70 nM.

Turning to `C/C(=C\C(=O)N[C@@H](CC(C)C)C(=O)N1CCC[C@H]1C(=O)NCCOC(N)=O)c1ccc(OP(=O)(O)O)cc1`, the IC50 worked out at 216 nM.

With `C/C(=C\C(=O)N[C@H]1CCc2cccc3c2N(C1=O)[C@H](C(=O)NCCNC(N)=O)C3)c1ccc(OP(=O)(O)O)cc1`, the IC50 came out at 412 nM.

As for `C/C(=C\C(=O)N[C@@H](CC(C)C)C(=O)N1C[C@H]2C[C@H]2[C@H]1C(=O)NCCOC(N)=O)c1ccc(OP(=O)(O)O)cc1`, the IC50 was found to be 206 nM.

Take `C/C(=C\C(=O)N[C@@H](CC(C)C)C(=O)N1CCC[C@H]1C(=O)N[C@H](C)CCC(N)=O)c1ccc(OP(=O)(O)O)cc1`: the IC50 was found to be 154 nM.

`C/C(=C\C(=O)N[C@@H](CC(C)C)C(=O)N1CCC[C@H]1C(=O)NCCNC(N)=O)c1ccc(OP(=O)(O)O)cc1`: the IC50 was determined as 100 nM.

On to `C/C(=C\C(=O)N[C@@H](CC(C)C)C(=O)N1C[C@H]2C[C@H]2[C@H]1C(=O)NCCNC(N)=O)c1ccc(OP(=O)(O)O)cc1`, for which the IC50 came to 42 nM.
